Values of other authors as cited in patent US20060211980A1 (priority 2005, published 2006).

Details: basic pKa

Nc1nc(N)c(-c2ccccc2)s1 [amiphenazole]
pKa: about 7
